# Reference: patent publication US20240050395A1 (priority 2020, published 2024)
# System: CBE-treated SH-SY5Y cells
# Assay: Viability of CBE-treated cells by MTT (Gaucher disease model)
# Settings: 50 nM Baf-A1 with 100 μM CBE + 25 nM, 50 nM and 75 nM PAO
substance,measurement,value
Bafilomycin A1,"effect on the protective effect of PAO (cell viability, MTT)",decreased the protective effect of PAO
